Article PMC11650849, “Brain endothelial permeability, transport, and flow assessed over 10 orders of magnitude using the in situ brain perfusion technique” (Fluids and Barriers of the CNS, 2024)

Amino acid sequences for entries named in this document (tags omitted). A change or cut given only in a name is not applied to a line headed by its entry.
UniProt Q63016: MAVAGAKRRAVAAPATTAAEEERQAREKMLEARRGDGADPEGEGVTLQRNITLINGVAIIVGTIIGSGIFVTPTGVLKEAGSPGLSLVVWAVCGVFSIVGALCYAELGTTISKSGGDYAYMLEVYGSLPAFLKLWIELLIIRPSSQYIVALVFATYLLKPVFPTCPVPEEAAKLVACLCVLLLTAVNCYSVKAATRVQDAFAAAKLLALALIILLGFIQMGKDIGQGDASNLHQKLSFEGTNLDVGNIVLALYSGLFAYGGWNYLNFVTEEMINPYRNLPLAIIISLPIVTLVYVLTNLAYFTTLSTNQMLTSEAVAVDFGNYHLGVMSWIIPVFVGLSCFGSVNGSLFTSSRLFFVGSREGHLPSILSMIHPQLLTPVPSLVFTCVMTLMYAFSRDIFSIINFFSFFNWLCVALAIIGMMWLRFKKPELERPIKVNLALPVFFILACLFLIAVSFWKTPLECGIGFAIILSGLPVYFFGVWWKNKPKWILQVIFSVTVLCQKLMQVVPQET

Biological target: Lat-1 (Rattus norvegicus, UniProt Q63016)
Details: LAT1 substrates, tracer concentration

N[C@@H](Cc1ccc(N(CCCl)CCCl)cc1)C(=O)O [Melphalan (para)] was tested. Which LogPS did it give?
Its LogPS is −2.98.

And the PS (perfusion 15-30 s)?
Its PS is 0.00104 mL/s/g.
